Reference: US7666875B2, “Hydantoin compounds” (Eisai R&D Management Co., Ltd., priority 2005, dated 2010)

By UniProt entry, the sequences of proteins in these tests, tags left out.
UniProt Q9UL17, whole entry: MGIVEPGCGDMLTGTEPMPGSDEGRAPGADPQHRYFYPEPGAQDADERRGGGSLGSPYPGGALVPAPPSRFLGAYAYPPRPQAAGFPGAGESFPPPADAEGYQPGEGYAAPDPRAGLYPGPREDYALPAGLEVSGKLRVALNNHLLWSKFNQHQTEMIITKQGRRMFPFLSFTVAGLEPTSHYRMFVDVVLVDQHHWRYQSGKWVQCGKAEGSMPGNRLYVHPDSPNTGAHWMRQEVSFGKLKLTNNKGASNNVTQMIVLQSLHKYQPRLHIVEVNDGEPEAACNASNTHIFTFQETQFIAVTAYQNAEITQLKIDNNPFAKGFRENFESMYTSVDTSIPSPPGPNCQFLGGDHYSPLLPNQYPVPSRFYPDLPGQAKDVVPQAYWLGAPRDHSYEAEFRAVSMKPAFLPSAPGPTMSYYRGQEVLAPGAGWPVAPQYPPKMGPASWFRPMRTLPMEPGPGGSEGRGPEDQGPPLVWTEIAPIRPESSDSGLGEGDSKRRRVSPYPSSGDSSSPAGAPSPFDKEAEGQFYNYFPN

molecular target: human T-bet (Homo sapiens, UniProt Q9UL17); experiment: HEKT-bet-luc assay (T-bet dependent luciferase reporter in engineered HEK cells); conditions: Table 2, compound 24 hours, IC50 normalized to reference ER-213038
Experimental: HEKT-bet-luc assay: This assay measures a T-bet dependent reporter (luciferase) activity in engineered HEK cells that express a human T-bet and a T-box responsive element driving luciferase reporter. HEKT-bet cells were plated at 2×10^4/well in 96-well plate and compound was added into cell culture for 24 hours. Luciferase activity was measured by adding 50 μl of Steady-Glo reagent (Promega) and samples were read in Victor V reader (PerkinElmer). The IC50 values were calculated utilizing a maximum value corresponding to the amount of luciferase in the absence of a test compound and a minimum value corresponding to a test compound value obtained at maximum inhibition.
Determination of Normalized HEKT-bet IC50 values: Compounds were assayed in microtiter plates. Each plate included a reference compound which was ER-213038. The un-normalized IC50 value for a particular compound was divided by the IC50 value determined for the reference compound in the same microtiter plate to provide a relative potency value. The relative potency value was then multiplied by the established potency of the reference compound to provide the normalized HEKT-bet IC50 value. In this assay, the established potency for ER-213038 was 0.190 μM. The IC50 values provided herein were obtained using this normalization method.

Point of comparison: COCCN1C(=O)N(Cc2cc(OC)c(OC)c(OC)c2)C(=O)C12CCN(Cc1cc(OC)cc(OC)c1)CC2, IC50 128 nM. Against it:
- COCCN1C(=O)N(Cc2cccc(OC)c2)C(=O)C12CCN(Cc1cccc3c1oc1ccccc13)CC2 — 2.7-fold higher, 346 nM
- CN1C(=O)N(CCCc2ccncc2)C(=O)C12CCN(Cc1cc3ccccc3s1)CC2 — 8.3-fold higher, 1060 nM
- CCN1C(=O)N(Cc2ccc3c(c2)OCO3)C(=O)C12CCN(Cc1cc(OC)cc(OC)c1)CC2 — 1.8-fold higher, 232 nM
- COCCN1C(=O)N(Cc2cccc(OC(F)(F)F)c2)C(=O)C12CCN(Cc1cc(OC)cc(OC)c1)CC2 — 1.5-fold lower, 83 nM
- CCN1C(=O)N(Cc2cc(OC)cc(OC)c2)C(=O)C12CCN(Cc1cc(OC)cc(OC)c1)CC2 — within 1.5-fold, 112 nM

same assay, conditions: Table 2, compound 24 hours, IC50 normalized to reference ER-213038, tested form: TFA

Point of comparison: COCCN1C(=O)N(Cc2cccc(OC)c2)C(=O)C12CCN(Cc1cn(C)c3ccccc13)CC2, IC50 285 nM. Against it:
- CCN1C(=O)N(C/C=C/c2ccccc2)C(=O)C12CCN(Cc1cccc3ccccc13)CC2 — 2.6-fold lower, 110 nM
- COCCN1C(=O)N(Cc2cccc(OC)c2)C(=O)C12CCN(Cc1ccc(OC)c3ccccc13)CC2 — 4.9-fold lower, 58 nM
- COCCN1C(=O)N(C/C=C/c2ccccc2)C(=O)C12CCN(Cc1cccc(C)c1)CC2 — 4.3-fold lower, 66 nM
- CCN1C(=O)N(C/C=C/c2ccccc2)C(=O)C12CCN(Cc1ccc3ccccc3c1)CC2 — 1.9-fold lower, 151 nM
- COCCN1C(=O)N(C/C=C/c2ccccc2OC)C(=O)C12CCN(Cc1ccccc1)CC2 — 2.8-fold lower, 102 nM
- COc1cccc(CN2C(=O)N(CC=C(C)C)C3(CCN(Cc4cc(OC)cc(OC)c4)CC3)C2=O)c1 — 1.9-fold lower, 150 nM
- COCCN1C(=O)N(Cc2cccc(OC)c2)C(=O)C12CCN(Cc1nccc3ccccc13)CC2 — within 1.5-fold, 284 nM
- COc1cc(CN2CCC3(CC2)C(=O)N(C/C=C/c2ccccc2)C(=O)N3Cc2ccc3c(c2)nnn3C)cc(OC)c1 — 3.7-fold lower, 78 nM
- COCCN1C(=O)N(Cc2cccc(OC)c2)C(=O)C12CCN(Cc1ccnc3ccccc13)CC2 — within 1.5-fold, 267 nM
- CCN1C(=O)N(C/C=C/c2ccccc2)C(=O)C12CCN(Cc1cc(OC)cc(OC)c1)CC2 — 4.8-fold lower, 59 nM
- Cn1nnc2cc(CN3C(=O)N(C/C=C/c4ccccc4)C(=O)C34CCN(Cc3cccc5ccccc35)CC4)ccc21 — 2.7-fold lower, 106 nM
- CCCN1C(=O)N(C/C=C/c2cccc(OC)c2)C(=O)C12CCN(Cc1ccccc1)CC2 — 3.5-fold lower, 81 nM
- COCCN1C(=O)N(Cc2cccc(OC)c2)C(=O)C12CCN(C/C=C/c1ccccc1)CC2 — 4-fold higher, 1140 nM
- COc1cc(CN2CCC3(CC2)C(=O)N(/C=C/Cc2ccccc2)C(=O)N3CCO)cc(OC)c1 — within 1.5-fold, 244 nM
- COCCN1C(=O)N(CCCCc2ccccc2)C(=O)C12CCN(Cc1ccccc1)CC2 — 2.1-fold higher, 603 nM
- CCN1C(=O)N(C/C=C/c2ccccc2)C(=O)C12CCN(Cc1cccc(OC)c1)CC2 — 4.8-fold lower, 59 nM
- COc1cccc(CN2C(=O)N(CCn3cccc3)C3(CCN(Cc4cc(OC)cc(OC)c4)CC3)C2=O)c1 — within 1.5-fold, 264 nM
- COc1cccc(CN2C(=O)N(CCc3c[nH]c4ccccc34)C3(CCN(Cc4cc(OC)cc(OC)c4)CC3)C2=O)c1 — within 1.5-fold, 389 nM
- COCCN1C(=O)N(C/C=C/c2ccccc2)C(=O)C12CCN(Cc1ccc3ccccc3c1)CC2 — 1.7-fold lower, 163 nM
